Earlier results on three compounds are cited in PMC11516055, “From Static to Dynamic Structures: Improving Binding Affinity Prediction with Graph‐Based Deep Learning” (Advanced Science, 2024).

The series concerns the target PTP1B (protein tyrosine phosphatase 1B). The following applies: experimental value, thiophene scaffold ligands; cited from earlier work.
A word on the pKi: it is the Ki on a negative log10 scale, so that one unit is a factor of ten. Turning to `O=C(O)COc1c(C(=O)O)sc(-c2cccc(NCc3ccccc3)c2)c1Br` [2qbr], the pKi is 6.3.

Take `O=C(O)COc1c(C(=O)O)sc(-c2cccc(NC3CCN(S(=O)(=O)Cc4ccccc4)CC3)c2)c1Br` [2qbp]: the pKi was 8.4.

With `CC1(C)CC(Nc2cccc(-c3sc(C(=O)O)c(OCC(=O)O)c3Br)c2)CC(C)(C)C1` [2qbq], the pKi was 7.4.
